{"source": "ChEMBL document CHEMBL5518212", "about": "“Structure-Based Design of Novel G-Protein-Coupled Receptor TAAR1 Agonists as Potential Antipsychotic Drug Candidates” (J Med Chem, 2024)", "key": {"[1]": {"target": "T1, Trace amine-associated receptor 1 (Homo sapiens, UniProt Q96RJ0)", "T1 sequence (Q96RJ0 whole entry)": "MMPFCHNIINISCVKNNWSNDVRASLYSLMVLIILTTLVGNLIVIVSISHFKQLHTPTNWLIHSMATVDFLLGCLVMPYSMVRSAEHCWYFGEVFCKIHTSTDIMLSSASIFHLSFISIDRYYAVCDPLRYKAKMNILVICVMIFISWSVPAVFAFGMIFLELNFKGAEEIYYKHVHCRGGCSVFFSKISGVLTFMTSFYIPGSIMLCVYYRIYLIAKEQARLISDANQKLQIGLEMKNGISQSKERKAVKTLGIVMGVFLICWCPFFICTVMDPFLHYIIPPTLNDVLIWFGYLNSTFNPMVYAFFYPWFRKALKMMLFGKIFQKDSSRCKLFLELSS", "assay": "Agonist activity at Gs-mediated TAAR1 activation (unknown origin) expressed in HEK293 cells pretreated with coelenterazine for 30 mins followed by compound addition by BRET assay", "format": "functional, cell-based"}, "[2]": {"assay": "Toxicity in C57BL/6J mouse assessed as induction of catalepsy at 3 to 10 mg/kg, po measured at 30 to 60 mins", "format": "organism-based", "details": "in vivo, dose lower 3 mg/kg, time lower 30 min, dose upper 10 mg/kg, time upper 60 min"}, "[3]": {"assay": "Toxicity in C57BL/6J mouse assessed as reduction in baseline locomotion at 3 mg/kg, po", "format": "organism-based", "details": "in vivo"}}, "note": "Several values for one entry are separate records, joined by “and”; a condition that tells them apart may be missing. Equal entries are not always repeated.", "data": [{"molecule": "CNC[C@@H]1OCCc2ccsc21", "note": "[ULOTARONT]", "values": [{"measurement": "EC50", "setting": "[1]", "result": "16.3 nM and 21.1 nM"}, {"measurement": "Activity", "setting": "[2]", "result": "Non-Toxic"}, {"measurement": "Activity", "setting": "[3]", "result": "Toxic"}]}]}
